In general, Ki refers to a dissociation constant, usually derived from enzyme kinetics or from competition with a known ligand. The low end stands for a stronger hold on the target, the high end for a looser hold on the target.

Molecules are shown by their SMILES. A value given as a limit tells only on which side of the number the result lay.

The target in this assay is Carbonic anhydrase 9 (Homo sapiens, UniProt Q16790). The assay can be described thus: Inhibition of human CA9 pre-incubated for 15 mins to 24 hrs measured after 6 hrs by phenol red-based stopped-flow CO2 hydrase assay.

Molecule `O=c1ccc2ccccc2o1` [COUMARIN] came in with a Ki greater than 100 µM.

Source of the values: ChEMBL document CHEMBL1932973, “5- and 6-membered (thio)lactones are prodrug type carbonic anhydrase inhibitors” (Bioorg Med Chem Lett, 2012).
